# AlphaSeq binding of Ab-14 heavy chain variants to a spike HR2 peptide

Data: MIT Lincoln Laboratory AlphaSeq set, Engelhart et al. 2022, doi:10.1038/s41597-022-01779-4, as distributed in FLAb.

The target is the same throughout: PDVDLGDISGINAS, from the HR2 region of SARS-CoV-2 spike.

Ab-14 is the parent antibody, in scFv form: VH, then three GGGGS repeats, then VL. The light chain is unchanged in all variants.
VH: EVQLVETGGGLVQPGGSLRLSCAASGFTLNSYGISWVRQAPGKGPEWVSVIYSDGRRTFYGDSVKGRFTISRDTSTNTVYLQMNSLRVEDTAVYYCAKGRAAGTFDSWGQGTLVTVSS
VL: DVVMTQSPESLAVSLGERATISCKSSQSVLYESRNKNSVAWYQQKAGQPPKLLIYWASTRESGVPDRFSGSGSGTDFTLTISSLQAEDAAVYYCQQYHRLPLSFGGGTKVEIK

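Phage display of a naive human antibody library on the peptide gave the parent. Variants in AAYL49 differ from the parent at up to three CDR positions; double and triple changes were sampled at random. The assay is AlphaSeq: two haploid yeast populations carry antibody and antigen on their surface. After mating in shaken culture at 30 °C for 16 h, diploids were selected and their barcode pairs sequenced. A regression on co-assayed BCL2-family reference pairs converts the normalised counts of each replicate to an apparent Kd. Each pool was mated in three replicate cultures.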

The whole VH of each variant is written out.
Every variant below is changed at V50 of the VH (sequential numbering).
Each Kd is an estimate from the mating assay, the geometric mean of the replicates in which the pair was seen; lower is stronger.
An entry "nd" has no value in the source: the pair was not observed among the diploids in any replicate. This suggests poor binding but is not conclusive.
The list is sorted by this average, lowest first, undetected variants last.
For reference, the parent read 4.4 nM as the reference entry and 13 µM (one replicate of three) as a member of this library.
Nonspecific signal, from three strains lacking the peptide, appeared in 15% of pairings of library AAYL49, centred on 11 µM (5% of these signals below 680 nM); values are not corrected for it.

With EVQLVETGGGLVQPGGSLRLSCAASGFTLNSYGISWVRQAPGKGPEWVSDIYSDGRRRFYGDSVKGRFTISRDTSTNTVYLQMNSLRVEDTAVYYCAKGREAGTFDSWGQGTLVTVSS the result was 1.4 µM (1 of 3 replicates). With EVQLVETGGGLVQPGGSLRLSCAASGFTLNSYGWSWVRQAPGKGPEWVSSIYSDGRRTFYGDSVKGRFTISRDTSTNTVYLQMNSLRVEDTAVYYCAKARAAGTFDSWGQGTLVTVSS the result was 4.9 µM (1 of 3 replicates). Variant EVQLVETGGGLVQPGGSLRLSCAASGFTLDSYTISWVRQAPGKGPEWVSLIYSDGRRTFYGDSVKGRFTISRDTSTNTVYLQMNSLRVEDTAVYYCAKGRAAGTFDSWGQGTLVTVSS gave 5.1 µM (1 of 3 replicates). Variant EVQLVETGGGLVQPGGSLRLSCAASGFTLNSYGISWVRQAPGKGPEWVSSINSDGRRDFYGDSVKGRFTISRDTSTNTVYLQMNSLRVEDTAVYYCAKGRAAGTFDSWGQGTLVTVSS gave 28 µM (1 of 3 replicates). Variant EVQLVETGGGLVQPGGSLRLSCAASGFTLNSYGISWVRQAPGKGPEWVSAIYSDGRRTFYGDSVKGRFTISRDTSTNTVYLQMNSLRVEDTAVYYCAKMRAAGTEDSWGQGTLVTVSS gave 30 µM (1 of 3 replicates). Variant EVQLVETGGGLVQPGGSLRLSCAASGFTLNSYGISWVRQAPGKGPEWVSCIYSDGRRTFYGDSVTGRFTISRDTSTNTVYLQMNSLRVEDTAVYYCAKVRAAGTFDSWGQGTLVTVSS gave 32 µM (1 of 3 replicates). For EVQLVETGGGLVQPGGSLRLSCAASGFTLFSYGISWVRQAPGKGPEWVSKIYSDGRRTFYGDSVDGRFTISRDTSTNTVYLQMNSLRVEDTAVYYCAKGRAAGTFDSWGQGTLVTVSS, the assay gave 68 µM (1 of 3 replicates).

With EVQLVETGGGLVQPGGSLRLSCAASGFTLNSYFESWVRQAPGKGPEWVSPIYSDGRRTFYGDSVKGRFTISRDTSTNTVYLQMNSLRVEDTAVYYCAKGRAAGTFDSWGQGTLVTVSS the result was nd (0 of 3 replicates). With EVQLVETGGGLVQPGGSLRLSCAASGFTLNSYGISWVRQAPGKGPEWVSHIYSDGRRTFYGDSVKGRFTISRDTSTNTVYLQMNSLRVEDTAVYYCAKGRAEGTFESWGQGTLVTVSS the result was nd (0 of 3 replicates). Variant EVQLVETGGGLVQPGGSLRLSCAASGFTLNSYGISWVRQAPGKGPEWVSEIYWDGRRTFYGDSVKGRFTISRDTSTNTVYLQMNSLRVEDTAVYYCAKGRAAGEFDSWGQGTLVTVSS showed nd (0 of 3 replicates). Variant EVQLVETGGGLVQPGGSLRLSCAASGFTLNSYGKSWVRQAPGKGPEWVSFIYSDGRRTFYGDSVKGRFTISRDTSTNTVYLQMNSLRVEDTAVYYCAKGHAAGTFDSWGQGTLVTVSS showed nd (0 of 3 replicates). Variant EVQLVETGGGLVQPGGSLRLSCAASGFTLNSVGISWVRQAPGKGPEWVSHIYSDGRRTFYGDCVKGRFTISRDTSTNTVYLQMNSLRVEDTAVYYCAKGRAAGTFDSWGQGTLVTVSS gave nd (0 of 3 replicates). Variant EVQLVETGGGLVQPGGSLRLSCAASGFTLNSYGISWVRQAPGKGPEWVSWIYSDGRATFYGDSVKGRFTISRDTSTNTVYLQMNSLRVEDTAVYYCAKGRRAGTFDSWGQGTLVTVSS gave nd (0 of 3 replicates). Variant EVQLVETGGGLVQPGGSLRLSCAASGFTLNSYGISWVRQAPGKGPEWVSTIVSDGRRTFYGDSVKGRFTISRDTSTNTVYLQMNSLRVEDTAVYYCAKGRAAGTFDGWGQGTLVTVSS gave nd (0 of 3 replicates).

Variant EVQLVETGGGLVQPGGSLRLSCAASGFTLNGYGISWVRQAPGKGPEWVSIIYSDGRRTFYGDEVKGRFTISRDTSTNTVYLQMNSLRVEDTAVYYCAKGRAAGTFDSWGQGTLVTVSS gave nd (0 of 3 replicates). With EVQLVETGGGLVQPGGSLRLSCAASGFTLNSYGISWVRQAPGKGPEWVSLIYSDGRRMFYGDSVKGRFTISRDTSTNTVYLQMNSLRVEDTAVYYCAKGRAAGTFDSWGQGTLVTVSS the result was nd (0 of 3 replicates).

The closing 3 entries, repeated:

| VH | Kd (apparent) | seen in |
|---|---|---|
| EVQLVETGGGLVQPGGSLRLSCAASGFTLNSYGISWVRQAPGKGPEWVSTIVSDGRRTFYGDSVKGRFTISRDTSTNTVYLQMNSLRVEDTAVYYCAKGRAAGTFDGWGQGTLVTVSS | nd | 0 of 3 |
| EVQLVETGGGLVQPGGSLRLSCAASGFTLNGYGISWVRQAPGKGPEWVSIIYSDGRRTFYGDEVKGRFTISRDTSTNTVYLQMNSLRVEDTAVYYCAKGRAAGTFDSWGQGTLVTVSS | nd | 0 of 3 |
| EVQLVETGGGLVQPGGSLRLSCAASGFTLNSYGISWVRQAPGKGPEWVSLIYSDGRRMFYGDSVKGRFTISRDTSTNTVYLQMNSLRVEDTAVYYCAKGRAAGTFDSWGQGTLVTVSS | nd | 0 of 3 |